# Test results reported in ChEMBL document CHEMBL1141150, “Synthesis of classical, four-carbon bridged 5-substituted furo[2,3-d]pyrimidine and 6-substituted pyrrolo[2,3-d]pyrimidine analogues as antifolates” (J Med Chem, 2005).
# Biological target: T1, Dihydrofolate reductase (Homo sapiens, UniProt P00374)
# T1 sequence (P00374 whole entry): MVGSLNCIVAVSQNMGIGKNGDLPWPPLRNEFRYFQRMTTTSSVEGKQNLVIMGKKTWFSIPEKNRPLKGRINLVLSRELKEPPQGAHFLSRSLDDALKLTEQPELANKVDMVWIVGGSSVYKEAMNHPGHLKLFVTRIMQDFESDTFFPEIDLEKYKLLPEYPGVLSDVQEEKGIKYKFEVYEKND
# Test: Inhibition of recombinant human dihydrofolate reductase done at 37 degree C in pH 7.4 with compound
smiles,measurement,value
Nc1nc2[nH]cc(CCc3ccc(C(=O)N[C@@H](CCC(=O)O)C(=O)O)cc3)c2c(=O)[nH]1 [PEMETREXED],Ki,7 nM
